Assay results taken from patent publication US20260207704A1, “STAPLED PEPTIDES AND METHODS THEREOF” (priority 2022, published 2026).

Sequences of proteins named here, by UniProt entry; tags and fusion partners are left off.
UniProt P35222, whole entry: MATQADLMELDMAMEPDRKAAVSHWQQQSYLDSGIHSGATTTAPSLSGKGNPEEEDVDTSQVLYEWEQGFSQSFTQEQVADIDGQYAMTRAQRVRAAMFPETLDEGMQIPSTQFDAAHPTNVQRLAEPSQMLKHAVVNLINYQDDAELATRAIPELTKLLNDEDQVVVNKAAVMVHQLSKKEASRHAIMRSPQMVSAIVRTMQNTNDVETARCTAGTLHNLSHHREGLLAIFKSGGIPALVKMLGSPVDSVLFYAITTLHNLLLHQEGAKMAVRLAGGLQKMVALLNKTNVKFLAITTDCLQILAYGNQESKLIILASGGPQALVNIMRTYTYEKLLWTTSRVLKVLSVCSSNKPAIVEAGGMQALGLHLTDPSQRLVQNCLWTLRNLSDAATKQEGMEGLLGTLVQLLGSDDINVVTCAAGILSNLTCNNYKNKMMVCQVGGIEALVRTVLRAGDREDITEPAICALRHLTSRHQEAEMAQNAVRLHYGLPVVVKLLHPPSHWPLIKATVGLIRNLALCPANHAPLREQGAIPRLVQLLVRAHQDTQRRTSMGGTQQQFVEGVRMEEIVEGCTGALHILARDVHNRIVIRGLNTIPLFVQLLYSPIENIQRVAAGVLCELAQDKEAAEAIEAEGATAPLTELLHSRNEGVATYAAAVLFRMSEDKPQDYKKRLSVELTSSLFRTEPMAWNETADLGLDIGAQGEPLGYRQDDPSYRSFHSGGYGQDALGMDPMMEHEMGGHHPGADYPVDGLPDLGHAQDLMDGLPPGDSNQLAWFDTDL

What follows are compounds tested against beta-catenin (Homo sapiens, UniProt P35222) (assay: fluorescence polarization binding to beta-catenin). Settings: beta-Catenin FP IC50 (nM).

Compared with `CC(=O)N1CCC[C@]12CC=CCCCC1(CCCC=CCCCOC(=O)N3CC[C@@]4(C3)NC(=O)[C@H](CC(=O)NCCC[C@@H](C(N)=O)NC(=O)[C@H](Cc3csc5ccccc35)NC(=O)[C@H](Cc3ccsc3)NC4=O)NC(=O)[C@H](Cc3ccccc3)NC(=O)[C@H](C)NC(=O)[C@H](C)NC(=O)[C@H](Cc3cccc(C(=O)O)c3)NC(=O)[C@H](CC(=O)O)NC1=O)NC(=O)[C@H](CC(C)(C)C)NC(=O)[C@H](CC(=O)O)NC2=O` (single isomer, unassigned) [I-40, Ac-PL3-Asp-Npg-B5-Asp-3COOHF-Ala-Ala-Phe-AsnR*3-PyrS2-3Thi-BztA-Orn*3-NH2], `CC(=O)N1CCC[C@]12CC=CCCCC1(CCCC=CCCCOC(=O)N3CC[C@@]4(C3)NC(=O)[C@H](CCCNC(=O)CCC[C@@H](C(=O)N[C@@H](C)C(N)=O)NC(=O)[C@H](Cc3csc5ccccc35)NC(=O)[C@H](Cc3ccsc3)NC4=O)NC(=O)[C@H](Cc3ccccc3)NC(=O)[C@H](C)NC(=O)C(C)(C)NC(=O)[C@H](Cc3cccc(C(=O)O)c3)NC(=O)[C@H](CC(=O)O)NC1=O)NC(=O)[C@H](CC(C)(C)C)NC(=O)[C@H](CC(=O)O)NC2=O` (relative stereo) [I-560, Ac-PL3-Asp-Npg-B5-Asp-3COOHF-Aib-Ala-Phe-Orn*3-PyrS2-3Thi-BztA-hGlnR*3-Ala-NH2] is lower in IC50: over 1000 nM for the first, under 50 nM for the second. The second is the more potent here.

Compared with `CC(=O)N1CCC[C@]12CC=CCCCC1(CCCC=CCCCOC(=O)N3CC[C@@]4(C3)NC(=O)[C@H](CCCCNC(=O)CC[C@@H](C(=O)N[C@@H](C)C(N)=O)NC(=O)[C@H](Cc3csc5ccccc35)NC(=O)[C@H](Cc3ccsc3)NC4=O)NC(=O)[C@H](Cc3ccccc3)NC(=O)[C@H](C)NC(=O)[C@H](CCC(=O)N3CCOCC3)NC(=O)[C@H](Cn3cc(CC(C)(C)C(=O)O)nn3)NC(=O)[C@H](CC(=O)O)NC1=O)NC(=O)[C@H](CC(C)(C)C)NC(=O)[C@H]([C@H](C)O)NC2=O` (relative stereo) [I-321, Ac-PL3-aThr-Npg-B5-Asp-[CH2CMe2CO2H]TriAzDap-MorphGln-Ala-Phe-Lys*3-PyrS2-3Thi-BztA-GlnR*3-Ala-NH2], `CC(=O)N1CCC[C@]12CC=CCCCC1(CCCC=CCCCOC(=O)N3CC[C@@]4(C3)NC(=O)[C@H](CCCCNC(=O)CC[C@@H](C(=O)N[C@@H](C)C(N)=O)NC(=O)[C@H](Cc3csc5ccccc35)NC(=O)[C@H](Cc3ccccc3C(F)(F)F)NC4=O)NC(=O)[C@H](Cc3ccccc3)NC(=O)[C@H](C)NC(=O)C(C)(C)NC(=O)[C@H](Cn3cc(CC(C)(C)C(=O)O)nn3)NC(=O)[C@H](CC(=O)O)NC1=O)NC(=O)[C@H](CC(C)(C)C)NC(=O)[C@H](CC(=O)O)NC2=O` (relative stereo) [I-195, Ac-PL3-Asp-Npg-B5-Asp-[CH2CMe2CO2H]TriAzDap-Aib-Ala-Phe-Lys*3-PyrS2-2F3MeF-BztA-GlnR*3-Ala-NH2] is lower in IC50: over 1000 nM for the first, under 50 nM for the second. The second is the more potent here.

`COc1cccc(C[C@@H]2NC(=O)[C@H](C)NC(=O)C(C)(C)NC(=O)[C@H](Cc3cccc(C(=O)O)c3)NC(=O)[C@H](CC(=O)O)NC(=O)C3(CCCC=CCCCOC(=O)N4CC[C@@]5(C4)NC(=O)[C@H](CCCCNC(=O)CC[C@@H](C(=O)N[C@@H](C)C(N)=O)NC(=O)[C@H](Cc4csc6ccccc46)NC(=O)[C@H](Cc4ccsc4)NC5=O)NC2=O)CCCC=CC[C@]2(CCCN2C(C)=O)C(=O)N[C@@H](CC(=O)O)C(=O)N[C@@H](CC(C)(C)C)C(=O)N3)c1` (single isomer, unassigned) [I-582, Ac-PL3-Asp-Npg-B5-Asp-3COOHF-Aib-Ala-30MeF-Lys*3-PyrS2-3Thi-BztA-GlnR*3-Ala-NH2] and `CC(=O)N1CCC[C@]12CC=CCCCC1(CCCC=CCCCOC(=O)N3CC[C@@]4(C3)NC(=O)[C@H](CCCCNC(=O)CC[C@@H](C(=O)N[C@@H](C)C(N)=O)NC(=O)[C@H](Cc3csc5ccccc35)NC(=O)[C@H](Cc3ccccc3C(N)=O)NC4=O)NC(=O)[C@H](Cc3ccccc3)NC(=O)[C@H](C)NC(=O)C(C)(C)NC(=O)[C@H](Cc3cccc(C(=O)O)c3)NC(=O)[C@H](CC(=O)O)NC1=O)NC(=O)[C@H](CC(C)(C)C)NC(=O)[C@H](CC(=O)O)NC2=O` (relative stereo) [I-542, Ac-PL3-Asp-Npg-B5-Asp-3COOHF-Aib-Ala-Phe-Lys*3-PyrS2-2cbmF-BztA-GlnR*3-Ala-NH2] cannot be ordered by IC50: under 50 nM for the first, under 50 nM for the second.

First: CC(=O)N1CCC[C@]12CC=CCCCC1(CCCC=CCCCOC(=O)N3CC[C@@]4(C3)NC(=O)[C@H](CC(=O)NCCC[C@@H](C(N)=O)NC(=O)[C@H](Cc3csc5ccccc35)NC(=O)[C@H](Cc3ccsc3)NC4=O)NC(=O)[C@H](Cc3ccccc3)NC(=O)[C@H](C)NC(=O)[C@H](C)NC(=O)[C@H](Cc3cccc(C(=O)O)c3)NC(=O)[C@H](CC(=O)O)NC1=O)NC(=O)[C@H](CC(C)(C)C)NC(=O)[C@H](CC(=O)O)NC2=O (single isomer, unassigned) [I-41, Ac-PL3-Asp-Npg-B5-Asp-3COOHF-Ala-Ala-Phe-AsnR*3-PyrS2-3Thi-BztA-Orn*3-NH2]
Second: CC(=O)N1CCC[C@]12CC=CCCCC1(CCCC=CCCCOC(=O)N3CC[C@@]4(C3)NC(=O)[C@H](CSCc3ccc5cc(ccc5c3)CSC[C@@H](C(=O)N[C@@H](C)C(N)=O)NC(=O)[C@H](Cc3csc5ccccc35)NC(=O)[C@H](Cc3ccsc3)NC4=O)NC(=O)[C@H](Cc3ccccc3)NC(=O)[C@H](C)NC(=O)C(C)(C)NC(=O)[C@H](Cc3cccc(C(=O)O)c3)NC(=O)[C@H](CC(=O)O)NC1=O)NC(=O)[C@H](CC(C)(C)C)NC(=O)[C@H](CC(=O)O)NC2=O (stereo partly drawn) [I-566, Ac-PL3-Asp-Npg-B5-Asp-3COOHF-Aib-Ala-Phe-[2_6-naph]Cys-PyrS2-3Thi-BztA-Cys-Ala-NH2]
The IC50 of the first is higher: 200 to 750 nM for the first, 50 to 200 nM for the second.

`CC(=O)N1CCC[C@]12CC=CCCCC1(CCCC=CCCCOC(=O)N3CC[C@@]4(C3)NC(=O)[C@H](CC(C)C)NC(=O)[C@H](Cc3ccccc3)NC(=O)[C@H](C)NC(=O)[C@H](CCC(=O)NC3CCN(CC3)C(=O)CC[C@@H](C(=O)N[C@@H](C)C(N)=O)NC(=O)[C@H](Cc3csc5ccccc35)NC(=O)[C@H](Cc3ccccc3C(F)(F)F)NC4=O)NC(=O)[C@H](Cc3cccc(C(=O)O)c3)NC(=O)[C@H](CC(=O)O)NC1=O)NC(=O)[C@H](CC(C)(C)C)NC(=O)[C@H](CC(=O)O)NC2=O` (stereo partly drawn) [I-93, Ac-PL3-Asp-Npg-B5-Asp-3COOHF-GlnR-Ala-Phe-Leu-PyrS2-2F3MeF-BztA-[4aminopiperidine]GlnR-Ala-NH2] and `CC(=O)N1CCC[C@]12CC=CCCCC1(CCCC=CCCCOC(=O)N3CC[C@@]4(C3)NC(=O)[C@H](CC(C)C)NC(=O)[C@H](Cc3ccccc3)NC(=O)[C@H](C)NC(=O)[C@H](CCC(=O)N3CCC(CC3)NC(=O)CC[C@@H](C(=O)N[C@@H](C)C(N)=O)NC(=O)[C@H](Cc3csc5ccccc35)NC(=O)[C@H](Cc3ccccc3C(F)(F)F)NC4=O)NC(=O)[C@H](Cc3cccc(C(=O)O)c3)NC(=O)[C@H](CC(=O)O)NC1=O)NC(=O)[C@H](CC(C)(C)C)NC(=O)[C@H](CC(=O)O)NC2=O` (stereo partly drawn) [I-94, Ac-PL3-Asp-Npg-B5-Asp-3COOHF-[4aminopiperidine]GlnR-Ala-Phe-Leu-PyrS2-2F3MeF-BztA-GlnR-Ala-NH2] fall in the same range of IC50: 200 to 750 nM for the first, 200 to 750 nM for the second.

`CC(=O)N1CCC[C@]12CC=CCCCC1(CCCC=CCCCOC(=O)N3CC[C@@]4(C3)NC(=O)[C@H](CSCc3cccc(c3)-c3cccc(c3)CSC[C@@H](C(=O)N[C@@H](C)C(N)=O)NC(=O)[C@H](Cc3csc5ccccc35)NC(=O)[C@H](Cc3ccsc3)NC4=O)NC(=O)[C@H](Cc3ccccc3)NC(=O)[C@H](C)NC(=O)C(C)(C)NC(=O)[C@H](Cc3cccc(C(=O)O)c3)NC(=O)[C@H](CC(=O)O)NC1=O)NC(=O)[C@H](CC(C)(C)C)NC(=O)[C@H](CC(=O)O)NC2=O` (stereo partly drawn) [I-567, Ac-PL3-Asp-Npg-B5-Asp-3COOHF-Aib-Ala-Phe-[3_3-biph]Cys-PyrS2-3Thi-BztA-Cys-Ala-NH2] and `CC(=O)N1CCC[C@]12CC=CCCCC1(CCCC=CCCCOC(=O)N3CC[C@@]4(C3)NC(=O)[C@H](CC(C)C)NC(=O)[C@H](Cc3ccccc3)NC(=O)[C@H](C)NC(=O)[C@H](CCCCNC(=O)c3cccc(c3)-c3cccc(c3)C(=O)NCCCC[C@@H](C(N)=O)NC(=O)[C@H](Cc3csc5ccccc35)NC(=O)[C@H](Cc3ccccc3Cl)NC4=O)NC(=O)[C@H](Cc3cccc(C(=O)O)c3)NC(=O)[C@H](CC(=O)O)NC1=O)NC(=O)[C@H](CC(C)(C)C)NC(=O)[C@H](CC(=O)O)NC2=O` (stereo partly drawn) [I-54, Ac-PL3-Asp-Npg-B5-Asp-3COOHF-[Biphen33COOH]Lys-Ala-Phe-Leu-PyrS2-2ClF-BztA-Lys-NH2] fall in the same range of IC50: 50 to 200 nM for the first, 50 to 200 nM for the second.

Compared with `CC(=O)N1CCC[C@]12CC=CCCCC1(CCCC=CCCCOC(=O)N3CC[C@@]4(C3)NC(=O)[C@H](CC(C)C)NC(=O)[C@H](Cc3ccccc3)NC(=O)[C@H](C)NC(=O)[C@H](CCC(=O)NCCCCNC(=O)CC[C@@H](C(=O)N[C@@H](C)C(N)=O)NC(=O)[C@H](Cc3csc5ccccc35)NC(=O)[C@H](Cc3ccccc3C(F)(F)F)NC4=O)NC(=O)[C@H](Cc3cccc(C(=O)O)c3)NC(=O)[C@H](CC(=O)O)NC1=O)NC(=O)[C@H](CC(C)(C)C)NC(=O)[C@H](CC(=O)O)NC2=O` (stereo partly drawn) [I-92, Ac-PL3-Asp-Npg-B5-Asp-3COOHF-GlnR-Ala-Phe-Leu-PyrS2-2F3MeF-BztA-[diaminobutane]GlnR-Ala-NH2], `CC(=O)N1CCC[C@]12CC=CCCCC1(CCCC=CCCCOC(=O)N3CC[C@@]4(C3)NC(=O)[C@H](CC(C)C)NC(=O)[C@H](Cc3ccccc3)NC(=O)[C@H](C)NC(=O)[C@H](CCC(=O)N3CCC(CC3)CN(C)C(=O)CC[C@@H](C(=O)N[C@@H](C)C(N)=O)NC(=O)[C@H](Cc3csc5ccccc35)NC(=O)[C@H](Cc3ccccc3C(F)(F)F)NC4=O)NC(=O)[C@H](Cc3cccc(C(=O)O)c3)NC(=O)[C@H](CC(=O)O)NC1=O)NC(=O)[C@H](CC(C)(C)C)NC(=O)[C@H](CC(=O)O)NC2=O` (single isomer, unassigned) [I-96, Ac-PL3-Asp-Npg-B5-Asp-3COOHF-GlnR-Ala-Phe-Leu-PyrS2-2F3MeF-BztA-[4mampiperidine]GlnR-Ala-NH2] is higher in IC50: under 50 nM for the first, 200 to 750 nM for the second.

Compound `CC(=O)N1CCC[C@]12CC=CCCCC1(CCCC=CCCCOC(=O)N3CC[C@@]4(C3)NC(=O)[C@H](CCCCNC(=O)CC[C@@H](C(=O)N[C@@H](CCCN3CCOCC3)C(=O)N[C@H](C)CO)NC(=O)[C@H](Cc3csc5ccccc35)NC(=O)[C@H](Cc3ccccc3C(F)(F)F)NC4=O)NC(=O)[C@H](Cc3ccccc3)NC(=O)[C@H](C)NC(=O)C(C)(C)NC(=O)[C@H](Cc3cccc(C(=O)O)c3)NC(=O)[C@H](CC(=O)O)NC1=O)NC(=O)[C@H](CC(C)(C)C)NC(=O)[C@H](CC(=O)O)NC2=O` (relative stereo) [I-225, Ac-PL3-Asp-Npg-B5-Asp-3COOHF-Aib-Ala-Phe-Lys*3-PyrS2-2F3MeF-BztA-GlnR*3-MorphNva-dAlaol] has an IC50 of under 50 nM.
